Measured values published in patent US9278960B2, “Quinoline carboxamide and quinoline carbonitrile derivatives as mGluR2-negative allosteric modulators, compositions, and their use” (Merck Sharp & Dohme Corp., priority 2011, dated 2016).

Chains of the proteins cited; added tags and fusions are not shown. Residues count along the entry.
UniProt Q14416, 19-872: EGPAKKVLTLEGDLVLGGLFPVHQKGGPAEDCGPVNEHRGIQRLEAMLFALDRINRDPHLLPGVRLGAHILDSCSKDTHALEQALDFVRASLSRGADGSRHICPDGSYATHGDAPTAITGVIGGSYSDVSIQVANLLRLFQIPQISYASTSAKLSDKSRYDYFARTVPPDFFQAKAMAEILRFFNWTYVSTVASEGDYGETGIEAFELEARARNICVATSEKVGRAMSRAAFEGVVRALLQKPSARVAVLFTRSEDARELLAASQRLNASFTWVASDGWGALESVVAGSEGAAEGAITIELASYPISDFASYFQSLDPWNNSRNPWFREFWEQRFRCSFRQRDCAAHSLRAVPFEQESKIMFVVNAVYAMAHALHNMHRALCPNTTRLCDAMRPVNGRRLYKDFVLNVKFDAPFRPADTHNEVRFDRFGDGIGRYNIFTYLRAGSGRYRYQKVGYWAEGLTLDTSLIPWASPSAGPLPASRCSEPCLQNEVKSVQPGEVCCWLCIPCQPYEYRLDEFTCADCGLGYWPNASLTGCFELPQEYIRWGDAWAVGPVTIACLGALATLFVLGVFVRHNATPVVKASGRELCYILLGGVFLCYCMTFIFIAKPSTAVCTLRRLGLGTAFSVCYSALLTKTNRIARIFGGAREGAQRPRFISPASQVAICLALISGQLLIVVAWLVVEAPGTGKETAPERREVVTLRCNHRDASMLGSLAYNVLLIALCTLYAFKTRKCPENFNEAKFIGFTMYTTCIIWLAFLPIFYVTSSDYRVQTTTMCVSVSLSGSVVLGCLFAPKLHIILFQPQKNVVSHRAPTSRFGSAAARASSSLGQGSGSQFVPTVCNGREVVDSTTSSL

Target: human mGluR2 (Homo sapiens (Human), UniProt Q14416)
Assay: FLIPR Ca2+ mobilization antagonist assay in CHO dhfr- cells expressing recombinant human mGluR2 and Gα16
Format: cell-based
Conditions: antagonist response after addition of 2,500 nM glutamate, Fluo-4 AM, FLIPR384

SMILES	IC50
COc1c(F)cc(-c2cc(C(N)=O)nc3cc(CCc4cnc(C)nc4)ccc23)cc1F [Example 8-54, 4-(3,5-difluoro-4-methoxyphenyl)-7-[2-(2-methylpyrimidin-5-yl)ethyl]quinoline-2-carboxamide]	0.011 µM
COc1ccc(-c2cc(C(N)=O)nc3cc(CCc4cnc(C)nc4)ccc23)cc1OC [Example 8-55, 4-(3,4-dimethoxyphenyl)-7-[2-(2-methylpyrimidin-5-yl)ethyl]quinoline-2-carboxamide]	0.096 µM
